Growth data for 14 compounds are collected here from PubChem BioAssay (NCI).

Values joined by “and” are separate entries in the source; they are usually repeats but may differ in a detail not shown here. Identical values can stand only once. Only a part is listed here, and it is no random draw.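 Results are percent growth after 48 hours of single-concentration exposure. 100 means growth as in untreated cells, lower positive values show inhibition; negative values down to -100 show cell death.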 Active and inactive are the calls of the source. How the source made its calls: active means growth percent below 10; inactive means the rest.

Among the test systems are HCT-15 colon; HT29 colon; SNB-75 CNS; SNB-19 CNS; U251 CNS; PC-3 prostate; SK-MEL-5 melanoma; UACC-62 melanoma; LOX IMVI melanoma; SK-MEL-28 melanoma.
What all share (assay): NCI-60 one-dose screen, 48 h (100 = growth as untreated, 0 = no growth, -100 = all killed)
Common to all, as to conditions: 10 µM

For `CN(C)Nc1c([N+](=O)[O-])cc([N+](=O)[O-])cc1[N+](=O)[O-]`, the growth with HCT-15 colon is inactive: 90%; with HT29 colon, inactive: 95.7%; in the experiment with SNB-75 CNS, inactive: 86.8%; in the experiment on SNB-19 CNS it was inactive: 108%; in the experiment with U251 CNS, inactive: 99.5%; with PC-3 prostate it was inactive: 97.8%. Moreover, the growth with SK-MEL-5 melanoma was inactive: 99.7%; with UACC-62 melanoma it was inactive: 104%; with LOX IMVI melanoma, inactive: 94.1%; in the experiment on SK-MEL-28 melanoma it was inactive: 119%.

Consider `CN(C)CCS`, for which the growth in the experiment with HCT-15 colon is inactive: 110% and inactive: 106%; with HT29 colon, inactive: 111% and inactive: 99.6%; with SNB-75 CNS it was inactive: 104% and inactive: 105%; with SNB-19 CNS, inactive: 108% and inactive: 106%; in the experiment on U251 CNS, inactive: 104% and inactive: 98.7%; in the experiment with PC-3 prostate, inactive: 96.8% and inactive: 94.9%. The growth with SK-MEL-5 melanoma is inactive: 108% and inactive: 116%; in the experiment on UACC-62 melanoma it was inactive: 105% and inactive: 108%; in the experiment with LOX IMVI melanoma it was inactive: 109% and inactive: 95.6%; with SK-MEL-28 melanoma it was inactive: 109% and inactive: 114%.

`CN(CCCl)CCCCCCCl`: the growth is inactive: 92.8% in the experiment with HCT-15 colon; inactive: 87.8% in the experiment with HT29 colon; inactive: 90.6% with SNB-75 CNS; inactive: 109% in the experiment on SNB-19 CNS; inactive: 99.1% in the experiment with U251 CNS; inactive: 88.3% with PC-3 prostate. Moreover, the growth is inactive: 103% in the experiment on SK-MEL-5 melanoma, inactive: 93.2% with UACC-62 melanoma, inactive: 95.8% in the experiment with LOX IMVI melanoma and inactive: 107% with SK-MEL-28 melanoma.

For `O=[N+]([O-])N(CCOC(N(F)F)(N(F)F)N(F)F)CC([N+](=O)[O-])([N+](=O)[O-])[N+](=O)[O-]`, the growth in the experiment on HCT-15 colon is inactive: 103%; in the experiment with HT29 colon it was inactive: 105%; with SNB-75 CNS, inactive: 97.9%; in the experiment on SNB-19 CNS it was inactive: 103%; in the experiment with U251 CNS it was inactive: 98.1%; with PC-3 prostate, inactive: 103%. Also, the growth was inactive: 103% in the experiment on SK-MEL-5 melanoma, inactive: 107% in the experiment with UACC-62 melanoma, inactive: 98.4% in the experiment on LOX IMVI melanoma and inactive: 109% in the experiment with SK-MEL-28 melanoma.

`N=C(N)N(N)[N+](=O)[O-]`: the growth with HCT-15 colon was inactive: 102%; in the experiment on HT29 colon, inactive: 106%; with SNB-75 CNS, inactive: 86.5%; with SNB-19 CNS, inactive: 102%; in the experiment with U251 CNS, inactive: 102%; in the experiment on SK-MEL-5 melanoma, inactive: 111%. Besides, the growth in the experiment on UACC-62 melanoma was inactive: 101%; in the experiment on LOX IMVI melanoma, inactive: 108%; with SK-MEL-28 melanoma, inactive: 112%.

As to `OCCSCCO`, the growth in the experiment on HCT-15 colon was inactive: 96.6%; with HT29 colon, inactive: 107%; in the experiment with SNB-75 CNS it was inactive: 107%; with SNB-19 CNS, inactive: 95%; in the experiment with U251 CNS, inactive: 103%; with PC-3 prostate, inactive: 104%. For the same compound, the growth in the experiment with UACC-62 melanoma was inactive: 101%; in the experiment with LOX IMVI melanoma it was inactive: 99.9%; in the experiment with SK-MEL-28 melanoma it was inactive: 121%.

With `Clc1ccccc1SCCBr`, the growth in the experiment with HCT-15 colon is inactive: 104%; in the experiment with HT29 colon, inactive: 101%; in the experiment on SNB-75 CNS, inactive: 90.8%; in the experiment on U251 CNS, inactive: 102%; with PC-3 prostate, inactive: 92.9%; in the experiment with SK-MEL-5 melanoma, inactive: 101%. Further, the figures for the growth in the experiment on LOX IMVI melanoma and in the experiment with SK-MEL-28 melanoma were inactive: 101% and inactive: 111%, respectively.

`O=C(O)C1(O)c2ccccc2-c2ccccc21`: the growth in the experiment with HCT-15 colon is inactive: 102% and inactive: 99.1%; in the experiment with HT29 colon, inactive: 82.2% and inactive: 104%; in the experiment with SNB-75 CNS, inactive: 128%; in the experiment on SNB-19 CNS, inactive: 86.8% and inactive: 99.8%; in the experiment with U251 CNS, inactive: 96% and inactive: 97.7%; in the experiment on PC-3 prostate it was inactive: 89%. In addition, the growth in the experiment on SK-MEL-5 melanoma was inactive: 98% and inactive: 101%; with UACC-62 melanoma, inactive: 91.8% and inactive: 91.5%; in the experiment with LOX IMVI melanoma, inactive: 96%; in the experiment on SK-MEL-28 melanoma it was inactive: 119% and inactive: 104%.

As for `O=[N+]([O-])c1cc([N+](=O)[O-])c(Nc2nnnn2CCO)c([N+](=O)[O-])c1`, the growth in the experiment with HCT-15 colon was inactive: 105%; in the experiment with HT29 colon it was inactive: 100%; in the experiment with SNB-75 CNS, inactive: 85.9%; with SNB-19 CNS, inactive: 107%; with U251 CNS, inactive: 105%; in the experiment with PC-3 prostate, inactive: 95.8%. The growth in the experiment with SK-MEL-5 melanoma was inactive: 109%; in the experiment with UACC-62 melanoma, inactive: 96.4%; in the experiment with LOX IMVI melanoma it was inactive: 99.7%; in the experiment with SK-MEL-28 melanoma, inactive: 114%.

With `O=[N+]([O-])c1cccc([N+](=O)[O-])c1O`, the growth in the experiment on HCT-15 colon is inactive: 101%; with HT29 colon, inactive: 81%; in the experiment on SNB-75 CNS it was inactive: 88.4%; in the experiment with SNB-19 CNS, inactive: 107%; in the experiment on U251 CNS it was inactive: 103%; in the experiment with PC-3 prostate, inactive: 107%. Besides, the growth is inactive: 108% in the experiment with SK-MEL-5 melanoma, inactive: 103% with UACC-62 melanoma, inactive: 103% with LOX IMVI melanoma and inactive: 111% in the experiment on SK-MEL-28 melanoma.

Turning to `O=[N+]([O-])c1ccc(OP2(=O)COCCO2)cc1` (stereo not given), the growth in the experiment on HCT-15 colon was inactive: 104%; in the experiment with HT29 colon, inactive: 101%; with SNB-75 CNS, inactive: 98.5%; in the experiment with SNB-19 CNS, inactive: 103%; in the experiment on U251 CNS, inactive: 97.2%; with SK-MEL-5 melanoma, inactive: 108%. Also, the values for the growth in the experiment on UACC-62 melanoma, in the experiment on LOX IMVI melanoma and in the experiment on SK-MEL-28 melanoma were inactive: 94.9%, inactive: 100% and inactive: 104%, respectively.

On to `Cc1c([N+](=O)[O-])c(C)c([N+](=O)[O-])c(Nc2c([N+](=O)[O-])c(C)c([N+](=O)[O-])c(C)c2[N+](=O)[O-])c1[N+](=O)[O-]`, for which the growth in the experiment with HCT-15 colon was active: 4.49%; with HT29 colon, active: 2.01%; in the experiment on SNB-75 CNS, inactive: 27.7%; with SNB-19 CNS it was inactive: 22.5%; in the experiment on U251 CNS, active: 4.78%; in the experiment with PC-3 prostate, active: 2.07%. In addition, the growth with SK-MEL-5 melanoma was active: 5.11%; in the experiment with UACC-62 melanoma, active: -0.239%; with LOX IMVI melanoma it was active: -7.02%; with SK-MEL-28 melanoma, inactive: 20.2%.

On to `O=[N+]([O-])c1ccc(Oc2c([N+](=O)[O-])cc([N+](=O)[O-])cc2[N+](=O)[O-])cc1`, for which the growth in the experiment with HCT-15 colon was inactive: 94.5%; in the experiment on HT29 colon, inactive: 106%; in the experiment on SNB-75 CNS, inactive: 104%; in the experiment on SNB-19 CNS it was inactive: 104%; with U251 CNS, inactive: 104%; in the experiment with PC-3 prostate, inactive: 97.8%. The growth is inactive: 98.6% in the experiment with SK-MEL-5 melanoma, inactive: 100% with UACC-62 melanoma, inactive: 97.8% in the experiment on LOX IMVI melanoma and inactive: 112% in the experiment with SK-MEL-28 melanoma.

As to `CCN(CC)CCOC(=O)C(O)(c1cc(C)cc(C)c1)c1cc(C)cc(C)c1`, the growth with HCT-15 colon is inactive: 104%; with HT29 colon, inactive: 92%; in the experiment with SNB-75 CNS it was inactive: 94.7%; with SNB-19 CNS, inactive: 98.6%; in the experiment on U251 CNS, inactive: 89.9%; in the experiment on PC-3 prostate it was inactive: 92.3%. Besides, the growth is inactive: 97.7% in the experiment with SK-MEL-5 melanoma, inactive: 92.8% in the experiment on UACC-62 melanoma, inactive: 101% in the experiment on LOX IMVI melanoma and inactive: 106% in the experiment on SK-MEL-28 melanoma.
